Read-outs that look alike come from different tables or passages of the source.
What was measured:
C57BL/6 wild-type mice [1] = settings: mouse, in vivo
C57BL/6 wild-type mice [2] = settings: mouse, in vivo, ip
C57BL/6 wild-type mice [3] = settings: mouse, in vivo, ip; remark: listed apart in the source
[4] = pH 7.4
[5] = compared to previously published compounds; ref Dietis et al. 2009; Healy et al. 2013 (comparators); cited from earlier work

## Dmt-c(SEtS)[DCys-Aic-DPen]-Ser(β-glucose)-NH2 [VRP26]
C57BL/6 wild-type mice [1]
  withdrawal signs precipitated by naltrexone: no differences in the number of withdrawal signs
C57BL/6 wild-type mice [2]
  CPP, time spent on drug-paired side: slightly increased time spent on the VRP26-paired side of the apparatus
C57BL/6 wild-type mice [3]
  locomotor activity, effect of dose: dose-dependent increases in locomotor activity on both day 1 and day 5
C57BL/6 wild-type mice [3]; 10 mg/kg
  locomotor activity: increased locomotor activity (p < 0.05) on day 5 only
C57BL/6 wild-type mice [3]; 32 mg/kg
  locomotor activity: increased locomotor activity on day 1 only
[4]
  drug delivered from osmotic pump, of expected drug concentration: > 95%
  stability in osmotic pump: stable under these conditions
[5]
  bioavailability after peripheral administration: significantly better bioavailability after peripheral administration

Reference: PMC5068912 (Psychopharmacology, 2016)
